## Apparent affinities of Ab-14 variants for a coronavirus HR2 peptide

The target is the same throughout: PDVDLGDISGINAS, from the HR2 region of SARS-CoV-2 spike.

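The parent was found by panning a naive human phage display library on the peptide. The library (AAYL49) carries one to three amino acid substitutions per variant, with no insertions or deletions. Affinity was read by AlphaSeq, a pooled yeast mating assay with surface-displayed partners. The frequency of each diploid, read from paired DNA barcodes, reflects how well the two displayed proteins bind. Scores were corrected for input abundance and mapped to Kd with protein pairs of known affinity run in the same pool. The assay was run in three technical replicates.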

Parent: Ab-14, a human scFv built as VH, the linker GGGGSGGGGSGGGGS, VL. Only the CDRs of the heavy chain vary.
VH: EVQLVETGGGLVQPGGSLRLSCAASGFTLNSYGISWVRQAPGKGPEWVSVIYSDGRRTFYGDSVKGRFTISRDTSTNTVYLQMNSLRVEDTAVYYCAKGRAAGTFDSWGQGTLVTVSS
VL: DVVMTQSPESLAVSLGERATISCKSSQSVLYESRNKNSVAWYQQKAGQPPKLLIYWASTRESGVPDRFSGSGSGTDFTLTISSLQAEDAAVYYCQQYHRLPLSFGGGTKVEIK

Variants are written as CDR1, CDR2 and CDR3 of the heavy chain (limits as in the source). Parent: GFTLNSYGIS, VIYSDGRRTFYGDSVK, GRAAGTFDS. Affinities are written as log10 Kd with Kd in nM; a lower number is a better binder. Where no diploid with the target was found in that replicate, the entry reads "n.d.": below detection, most likely a poor binder, though not proof of it.

| CDR-H1 | CDR-H2 | CDR-H3 | log10 Kd (nM) by replicate | empty controls |
|---|---|---|---|---|
| GFTLNSYGIS | VIYSDGRRTFNGDSVK | GRAAGTFES | 1.92 2.06 2.33 | 0 of 9 |
| GFTLNSYEIS | VIYSDGRRTFYGDSVK | GRAAGNFDS | n.d. n.d. n.d. | 0 of 9 |
| GFTLNSYGIS | SIYRDGRRTFYGDSVW | GRAAGTFDS | n.d. 4.75 4.77 | 4 of 9 (4.91) |
| GFTLNSYSIS | VIYSDGRRTFYGDAVK | GHAAGTFDS | n.d. 3.86 5.66 | 2 of 9 (3.83) |
| GFTLNSYGIS | VIYSMGRRTFYGGSVK | GRAAGSFDS | n.d. n.d. n.d. | 0 of 9 |
| GFTLNSYGIS | VCYSDGRRFFYGDSVW | GRAAGTFDS | n.d. n.d. n.d. | 0 of 9 |
| GFTLNSYGIS | VIYSDGRRTFYGDSKK | PRAAGTFVS | 4.80 n.d. 5.81 | 2 of 9 (4.48) |
| GHILNSYGIS | VIYSDGRRNFYGDSVK | GRAAGTFDS | 2.10 2.12 3.22 | 0 of 9 |
| GFTLMSYGIS | VMYSDGRRTFYGDSVK | GRAAGPFDS | 3.68 3.83 6.51 | 8 of 9 (4.33) |
| GFTLNSYGIS | VIYSDGCTTFYGDSVK | GRAAGTFIS | n.d. n.d. n.d. | 1 of 9 (3.59) |
| GFTLNSYGIS | VIYSDGRGTFYGDSIK | RRAAGTFDS | n.d. 3.78 n.d. | 0 of 9 |
| GFTLNSYGIW | VIYGDGRRFFYGDSVK | GRAAGTFDS | 3.29 n.d. n.d. | 0 of 9 |
| GFTLNSYGSS | VIYNDGRRTFYGDCVK | GRAAGTFDS | n.d. n.d. n.d. | 0 of 9 |
| GETLNSYGIS | VIYSDGRRTFYGDSVK | GRAAGPFDS | n.d. n.d. n.d. | 0 of 9 |
| GFTLNSYGIS | VIYSDMRRTFYGDSVK | GRAAGTFDS | n.d. n.d. n.d. | 0 of 9 |
| GFTLNSYGIS | VIYSDGRNTFYGDSVY | GRAWGTFDS | n.d. 4.53 4.19 | 1 of 9 (3.73) |
| GFTLNSYGIS | VIYSDVRRFFYGDSVK | GNAAGTFDS | n.d. n.d. n.d. | 1 of 9 (3.72) |
| GFTLNSYGIS | VIYSDGRLTFYGDSVK | GMAGGTFDS | n.d. n.d. n.d. | 0 of 9 |
| GFTLNSYGIG | VIYSDGRRTFYGDSVK | GRAGGTFYS | n.d. n.d. n.d. | 3 of 9 (4.82) |
| AFTLNSYGIS | VIYSRGRRTFYGDSVK | GRAAKTFDS | n.d. n.d. n.d. | 0 of 9 |
| GFTLNSYGIS | VIYSDSRRTFYGDSVK | GRAAGTSKS | n.d. 1.85 n.d. | 0 of 9 |
| GFTLNSYGIS | VIYSDGRRTFYGDSVC | GRVGGTFDS | 1.53 1.51 2.16 | 0 of 9 |
| GFKLVSYYIS | VIYSDGRRTFYGDSVK | GRAAGTFDS | n.d. n.d. n.d. | 1 of 9 (2.66) |
| GFTLNSYGIL | VIYSDGRRIFYGDSVK | GRAAGTFDM | 4.58 4.37 5.25 | 5 of 9 (4.36) |
| GFTLNHYGIS | VIRSDGRRTFYGDSTK | GRAAGTFDS | n.d. n.d. n.d. | 1 of 9 (3.54) |
| GFTLNQYGIS | VIYSDGRRTFYGDSVA | GRAAGTFIS | 2.69 2.20 2.50 | 1 of 9 (3.30) |
| GFTLNSYSIS | VHYSDGRRTVYGDSVK | GRAAGTFDS | n.d. n.d. n.d. | 2 of 9 (4.50) |
| GFTLQSYGIW | VIYSDGRRTFEGDSVK | GRAAGTFDS | n.d. n.d. n.d. | 1 of 9 (4.53) |
| GATLNSYGIS | VFYSDGRRTFYRDSVK | GRAAGTFDS | n.d. n.d. n.d. | 1 of 9 (3.98) |
| TFTLNSYGIS | VIYDDGRRTFYGDSVK | GRAAGGFDS | 3.60 n.d. n.d. | 2 of 9 (4.32) |
| GFTTNSYGIS | LIYSDGRRTFYGDSVK | GRAAVTFDS | n.d. n.d. n.d. | 0 of 9 |
| GFTLNSFGIS | VIYSDGRRTFYGDSVK | GRSAGAFDS | 4.31 n.d. n.d. | 1 of 9 (3.85) |
| GFTLNSYGIS | VIYSDGRRTFYFDSVK | GRDAGTFDS | 2.83 3.02 3.91 | 3 of 9 (3.61) |
| GFTLNSYGIS | EIYSDGRRTFGGDSVK | GRAANTFDS | n.d. n.d. 5.09 | 0 of 9 |
| GFTLNSYGIP | VIYSDGLRTFYGDSVK | GRAAGTFDD | n.d. n.d. n.d. | 0 of 9 |
| GFHLNSYGIS | VIYSDGRRTFYEDSVK | SRAAGTFDS | 0.48 1.05 1.32 | 1 of 9 (4.14) |
| GFTLFSYGIS | VIYSDGRKTFYGDKVK | GRAAGTFDS | 3.01 3.06 2.79 | 5 of 9 (4.66) |
| GFTLNEYGIS | VIYMDGRMTFYGDSVK | GRAAGTFDS | n.d. n.d. n.d. | 1 of 9 (4.33) |
| GFTLNSYGIS | VIYSDGRCTFYGDSVK | GRAAGTFDS | n.d. n.d. n.d. | 3 of 9 (3.32) |
| GFTLNEYGIS | VIYSDGRRAFYGDSVK | GRAAGTFDY | 1.26 1.42 1.52 | 0 of 9 |
| GFTLNLYGIS | VIYSDGRRTFYGASVK | GRAKGTFDS | n.d. n.d. n.d. | 0 of 9 |
| GFTLNSYGIS | VIYSDGRRTFYGDSSW | GRAAGTFDD | 4.40 n.d. n.d. | 0 of 9 |
| GWTLNSYGIS | VIYMDGRRTFYGDSVK | GRAAGTGDS | n.d. n.d. n.d. | 0 of 9 |

A selection of 5 entries from above:

CDR-H1,CDR-H2,CDR-H3,log10 Kd (nM) by replicate,empty controls
GFTLNSYGIS,VIYSDGRNTFYGDSVY,GRAWGTFDS,n.d. 4.53 4.19,1 of 9 (3.73)
GFTLNSYGIS,VIYSMGRRTFYGGSVK,GRAAGSFDS,n.d. n.d. n.d.,0 of 9
GFKLVSYYIS,VIYSDGRRTFYGDSVK,GRAAGTFDS,n.d. n.d. n.d.,1 of 9 (2.66)
GFTLMSYGIS,VMYSDGRRTFYGDSVK,GRAAGPFDS,3.68 3.83 6.51,8 of 9 (4.33)
GFTLNSYGIS,VIYSDGRRTFYGDSVC,GRVGGTFDS,1.53 1.51 2.16,0 of 9

For reference, the parent read 0.65 as the reference entry and 4.11 (one replicate of three) as a member of this library. Nonspecific signal, from three strains lacking the peptide, appeared in 15% of pairings of library AAYL49, centred on 4.06 (5% of these signals below 2.83); values are not corrected for it. The control count says in how many pairings with the empty strains this scFv gave a signal, with their mean in brackets.

Values reported by Engelhart et al. 2022, doi:10.1038/s41597-022-01779-4 (FLAb copy).